Reference: paper PMC6102536, “A Metabolism-Based Synergy for Total Coumarin Extract of Radix Angelicae Dahuricae and Ligustrazine on Migraine Treatment in Rats” (Molecules : A Journal of Synthetic Chemistry and Natural …, 2018)

Protein sequences, listed by entry. Tags and fused reporters are not part of them.
UniProt P33261, whole entry: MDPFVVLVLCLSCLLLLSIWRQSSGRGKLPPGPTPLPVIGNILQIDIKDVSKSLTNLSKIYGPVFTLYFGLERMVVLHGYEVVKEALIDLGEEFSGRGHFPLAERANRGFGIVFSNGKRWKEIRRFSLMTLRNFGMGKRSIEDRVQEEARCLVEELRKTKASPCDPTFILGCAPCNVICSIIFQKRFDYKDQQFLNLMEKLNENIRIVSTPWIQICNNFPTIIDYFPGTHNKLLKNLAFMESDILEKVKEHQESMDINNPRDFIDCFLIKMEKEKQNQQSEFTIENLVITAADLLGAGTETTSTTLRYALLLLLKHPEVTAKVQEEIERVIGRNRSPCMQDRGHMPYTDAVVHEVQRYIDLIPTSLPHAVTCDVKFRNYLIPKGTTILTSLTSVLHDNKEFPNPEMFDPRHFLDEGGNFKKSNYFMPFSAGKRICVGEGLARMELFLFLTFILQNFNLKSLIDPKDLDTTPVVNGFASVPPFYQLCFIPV

Molecular target: T1, CYP2C19 (Homo sapiens, UniProt P33261)
T1 construct: recombinant CYP450, commercial (Research Institute for Liver Diseases, Shanghai); P450-Glo Screening System (Promega)
Assay: P450-Glo inhibition assay, recombinant CYP
Assay type: biochemical
Conditions: read-out: IC50 (μM) (95% Confidence Interval) / Positive Control ^a
Excerpt: P450-Glo inhibition assay, recombinant CYP on CYP2C19

Compound `Cc1c(C)c2c(c(C)c1O)CCC(C)(COc1ccc(CC3SC(=O)NC3=O)cc1)O2` (stereo not shown) [troglitazone, reference compound] has an IC50 of 6 µM.
